## Yeast mating assay B: variants of the scFv Ab-14

Data: MIT Lincoln Laboratory AlphaSeq set, Li et al. 2023, doi:10.1038/s41467-023-39022-2, as distributed in FLAb.

Target peptide (SARS-CoV-2 spike, HR2 region): PDVDLGDISGINAS

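The starting antibody came from a phage panning campaign against this peptide. Designed CDR sequences, proposed from the first random library and measured here. Group labels follow the data file (Ctrl: baseline library sampled from a position-specific scoring matrix, with some repeated check sequences; Rand: our label for a block that the file lists under HC and that is probably the random mutants of the ten best first-round binders; GP: Gaussian process model; GPLM: also part of the Gaussian process libraries; HC: hill climbing; Gen: genetic algorithm; Gibbs: Gibbs sampling; a sequence that several methods proposed may carry one label only). Affinity was read by AlphaSeq, a pooled yeast mating assay with surface-displayed partners. Mating (16 h, 30 °C) was followed by selection of diploids and sequencing of their barcodes. Read counts were normalised to the haploid input and turned into Kd by a linear fit to BCL2-family pairs of known affinity, for each replicate. There are six technical replicates.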

Ab-14 is the parent antibody, in scFv form: VH, then the linker GGGGSGGGGSGGGGS, then VL. The light chain is unchanged in all variants.
VH: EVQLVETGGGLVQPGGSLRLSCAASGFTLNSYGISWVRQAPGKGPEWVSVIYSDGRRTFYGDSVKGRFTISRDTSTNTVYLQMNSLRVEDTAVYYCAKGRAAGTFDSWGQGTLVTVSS
VL: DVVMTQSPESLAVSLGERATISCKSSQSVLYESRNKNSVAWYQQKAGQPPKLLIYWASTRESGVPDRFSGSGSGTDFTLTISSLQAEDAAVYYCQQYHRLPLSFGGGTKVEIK

Substitutions are numbered in sequence along the VH above, starting at 1 (not Kabat).
Variants here have at most six changes.
Scale: log10 of Kd in nM, estimated from mating counts; low values are strong binders.
Replicates are averaged; those with no signal do not enter the mean.
Where no diploid with the target was found in that replicate, the entry reads "nd": below detection, most likely a poor binder, though not proof of it.
Entries are sorted by rising average, undetected variants last.
Values of this round are not directly comparable with the first-round values of the same sequences.
In the paper, a design with two or fewer of six values counts as a poor binder.
Of ten entries with the parent sequence, four were seen in most replicates (averages 0.34 to 2.37), three in one and three in none, so single entries are noisy.
Background: pairings of all heavy chain designs with three empty control strains gave a value in 1% of cases (median 2.08, 5th percentile 0.84). Values in that range, when seen in few replicates, are hard to tell from nonspecific mating.

changes,group,"replicates, log10 nM","mean, log10 nM"
T28S+N30T+S53A,GPLM_Gen,-0.24 / -0.12 / -0.59 / 0.02 / -0.02 / -0.34,-0.21
S53A+R100K+S107L,GPLM_Gen,0.14 / 0.07 / -0.18 / -0.22 / -0.03 / 0.08,-0.02
T28E+R56K+R100K,GP_Gen,0.08 / -0.13 / 1.27 / -0.68 / 0.58 / -0.32,0.13
T28D+S31Q+R100E,GPLM_Gen,0.32 / 0.10 / 0.51 / -0.02 / 0.11 / 0.10,0.18
T28G+S31Q+G61A,GPLM_HC,0.36 / 0.28 / -0.05 / 0.23 / 0.06 / 0.38,0.21
N30D+A101E+S107T,GPLM_Gen,0.06 / 0.79 / 0.69 / -0.03 / 0.36 / 0.28,0.36
T28N+G61K+A101L,GP_Gen,nd / 0.52 / -0.02 / 0.35 / 1.66 / -0.48,0.41
T28N+F59A+G61K,GP_Gibbs,1.07 / 1.10 / 0.43 / -0.06 / 0.16 / 0.65,0.56
S31D+G61I+R100A,GP_HC,0.84 / 0.65 / 0.42 / 0.53 / 0.39 / 0.61,0.57
T28D+S31T+G61C+R100Q,GP_Gibbs,0.51 / 0.93 / -0.15 / 1.70 / 0.50 / 0.39,0.65
T28K+R100S+A101T+S107V,GP_Gibbs,0.66 / 0.42 / 0.73 / 0.52 / 0.61 / 1.00,0.66
T28S+R100N,GPLM_Gen,0.66 / 0.86 / 0.49 / 0.56 / 0.56 / 0.85,0.66
T28D+S31N+G61A,GPLM_Gen,nd / 0.90 / 0.98 / 0.69 / 0.00 / 0.82,0.68
G61S+R100Q+A101L+S107D,GP_HC,1.30 / 0.48 / 0.48 / 0.64 / 0.66 / 0.72,0.71
G61A+A101L,GPLM_Gen,0.17 / 0.56 / 1.12 / 0.44 / 0.93 / 1.52,0.79
T28E+G61I+R100K+A101N,GP_Gen,0.56 / 1.42 / 0.89 / 0.53 / 0.75 / 1.00,0.86
T28W+S31D+G61H+A101Q,GP_Gibbs,0.31 / 1.13 / nd / 0.33 / 1.96 / nd,0.93
T28N+G61K+A101E,GP_Gen,nd / 0.37 / 1.27 / 0.44 / 1.85 / 0.87,0.96
S31E+R56L+G61T+A101F,GPLM_HC,0.82 / 0.63 / 1.35 / 0.45 / 1.73 / 0.84,0.97
T28H+G61Q+R100K,GP_Gen,1.02 / 0.36 / 0.74 / 0.96 / 1.98 / 0.99,1.01
S31E+F59V+S107Q,GPLM_HC,nd / 1.87 / nd / 0.56 / nd / 0.59,1.01
T28H+G61S+A101Q,GP_Gibbs,nd / 1.07 / 1.38 / 1.58 / -0.33 / 1.53,1.05
T28S+S107Q,GPLM_Gen,1.38 / 1.00 / 1.74 / 1.04 / 1.43 / 1.55,1.36
T28D+G61V+S63K+A101T,GP_Gen,nd / 3.20 / 0.17 / nd / 1.19 / 0.99,1.39
T28D+S63Q+A101E+S107T,GP_Gen,1.56 / nd / 1.02 / 1.71 / 1.36 / 1.46,1.42
F27E+S107A,Ctrl,1.49 / nd / nd / 1.11 / 1.23 / 1.88,1.43
R56K+R100W+A101V+S107F,GPLM_Gibbs,nd / 1.87 / 0.94 / nd / 1.68 / 1.88,1.59
R100E+A101L,Ctrl,1.46 / 1.86 / 1.44 / 1.26 / 2.74 / 1.32,1.68
T28S+N30Q+S31K+A101L,Ctrl,nd / 2.17 / 1.67 / nd / 2.29 / 2.55,2.17
F59Q+G61S+R100Q,GPLM_HC,nd / nd / nd / nd / 2.45 / nd,2.45
T28H+G61C+R100Q+A101T,GP_Gibbs,nd / nd / nd / nd / nd / 3.13,3.13
G26M+T28D+G61S+R100N,GP_Gen,nd / 2.04 / nd / nd / 4.29 / nd,3.16
G26Q+T28D+A101Q,GP_HC,nd / nd / nd / nd / nd / nd,nd
N30M+S53A+D106S,GPLM_HC,nd / nd / nd / nd / nd / nd,nd
S31E+A101T+D106T,GPLM_Gen,nd / nd / nd / nd / nd / nd,nd
G103V+D106N+S107Q,GP_HC,nd / nd / nd / nd / nd / nd,nd
N30R+S31Q+G103V+S107Q,Rand,nd / nd / nd / nd / nd / nd,nd
S53A+T58V+A102Y+G103A,Ctrl,nd / nd / nd / nd / nd / nd,nd
D106K+S107M,Ctrl,nd / nd / nd / nd / nd / nd,nd
I51D+G61K+D62G+F105I+S107L,Ctrl,nd / nd / nd / nd / nd / nd,nd
T28Q+S63N+G99R,Ctrl,nd / nd / nd / nd / nd / nd,nd
S31E+D106R+S107L,GP_HC,nd / nd / nd / nd / nd / nd,nd
R56K+G61I+V64T+A102S,Ctrl,nd / nd / nd / nd / nd / nd,nd
F27E+T28H+N30A+R100Q,Ctrl,nd / nd / nd / nd / nd / nd,nd
T28N+S63A+A101T,GP_Gen,nd / nd / nd / nd / nd / nd,nd
S31E+A101T+D106I+S107T,GP_HC,nd / nd / nd / nd / nd / nd,nd
T28D+T104H+D106W,GPLM_HC,nd / nd / nd / nd / nd / nd,nd